## Experimental properties from OPERA 2.9

Source: data files of OPERA 2.9 (Mansouri et al.), github.com/kmansouri/OPERA.

The melting point is given in degrees Celsius. logP is the log10 of the octanol-water partition coefficient; higher is more lipophilic. Solubility in water is on a log10 molar scale (set defined at 25 °C). Vapor pressures (log10 mmHg) refer to near room temperature, 15 to 30 °C; higher is more volatile. fu is the fraction unbound in human plasma, from 0 to 1. Intrinsic clearance (human, µL/min per 10^6 hepatocytes): higher is faster turnover, and 0 stands for none detected. "–" marks a cell with nothing listed here.

| melting point (°C) | logP | log S (log10 mol/L) | vapor pressure (log10 mmHg) | fraction unbound | Clint (µL/min/10^6 cells) | structure (SMILES) |
|---|---|---|---|---|---|---|
| 150 | – | -3.984 | – | – | – | CCN(CC)CCS(=O)(=O)[C@@H]1CCN2C(=O)c3coc(n3)CC(=O)C[C@H](O)C=C(C)C=CCNC(=O)C=C[C@@H](C)[C@@H](C(C)C)OC(=O)[C@@H]12 |
| -26 | 5.4 | -5.675 | -2.031 | – | – | CCCCc1ccc(Br)cc1 |
| -4.4 | – | – | -2.889 | – | – | CC(C)Cc1ccc(CC(C)C=O)cc1 (stereo unspecified) |
| 20 | – | – | -3.985 | – | – | Brc1ccc(Oc2ccccc2Br)cc1 |
| 163 | -0.04 | – | – | – | – | CC1=C(/C=C/C(C)=C\C[P+](c2ccccc2)(c2ccccc2)c2ccccc2)C(C)(C)CC(O)C1=O.[Br-] (stereo partly drawn) |
| – | 4.2 | – | -5.684 | – | – | N#CC(CCBr)(c1ccccc1)c1ccccc1 |
| – | 0.038 | -2.43 | – | – | – | CCN(c1ccccc1)S(=O)(=O)c1ccccc1/N=N/C1C(=O)N(c2cc(Cl)c(S(=O)(=O)[O-])cc2Cl)N=C1C.[Na+] (stereo partly drawn) |
| – | 0.75 | – | -2.362 | – | – | O=Cc1ccccc1C=O |
| – | 3.59 | -4.85 | -7.641 | – | – | Nc1nc(-c2ccc3ccccc3c2)cs1 |
| -2 | – | -4.321 | -1.782 | – | – | CCOC(=O)OC1CCCCC1C(C)(C)C (stereo unspecified) |
| -73 | 5.2 | – | -2.907 | – | – | CC(C)C=NCC1(C)CC(N=CC(C)C)CC(C)(C)C1 (stereo unspecified) |
| – | 1.4 | -3.14 | – | 0.115 | – | COc1cc2nc(N(C)CCCNC(=O)C3CCCO3)nc(N)c2cc1OC (stereo unspecified) |
| – | 3.205 | – | -0.284 | – | – | CCC[C@H]1CCO[C@@H](C)S1 |
| – | – | – | – | 0.00325 | 64.57 | c1ccc(Nc2ccccc2)cc1 |
| – | – | – | – | 0.9214 | 0.2182 | CC(C)O |
| – | 5.01 | -3.866 | 1.215 | – | – | C=CC1CCCCC1 |
| – | – | -2.672 | -3.612 | – | – | COc1ccc(OC)c(Cl)c1 |
| – | 0.6 | -3.417 | – | – | – | CC=CC1=C(C(=O)O)N2C(=O)[C@@H](NC(=O)[C@H](N)c3ccc(O)cc3)[C@H]2SC1 |
| – | 1.9 | -1.676 | – | – | – | FC(F)OC(F)C(F)(F)F (stereo unspecified) |
| – | 3.95 | -2.886 | -9.42 | – | – | CCCCCCCCCc1cc(CN(CCO)CCO)c(O)c(CN(CCO)CCO)c1 |
| – | 2.56 | -6.225 | – | – | – | NS(=O)(=O)c1ccc(N2CCC(c3ccc(Cl)cc3)=N2)cc1 |
| – | – | -4.821 | -3.846 | – | – | CCCCN(CCCC)C(=O)N(CCCC)CCCC |
| – | -2.9 | – | -4.736 | – | – | CCN(CC)CC.Cc1ccc(S(=O)(=O)O)cc1 |
| – | – | -7.932 | -8.663 | – | – | CCCCNc1ccc(NCCCC)c2c1C(=O)c1ccccc1C2=O |
| 294.6 | 1.8 | -5.494 | – | – | – | O=c1nc(-c2ccccc2)[nH]c(-c2ccccc2)n1 |
| 265.7 | -0.078 | -4.58 | -9.837 | – | – | N#Cc1ccc(Nc2nc(O)cc(=O)[nH]2)cc1 |

Excerpt, the final 4 entries:

| structure (SMILES) | melting point (°C) | logP | log S (log10 mol/L) | vapor pressure (log10 mmHg) | fraction unbound | Clint (µL/min/10^6 cells) |
|---|---|---|---|---|---|---|
| CCN(CC)CC.Cc1ccc(S(=O)(=O)O)cc1 | – | -2.9 | – | -4.736 | – | – |
| CCCCNc1ccc(NCCCC)c2c1C(=O)c1ccccc1C2=O | – | – | -7.932 | -8.663 | – | – |
| O=c1nc(-c2ccccc2)[nH]c(-c2ccccc2)n1 | 294.6 | 1.8 | -5.494 | – | – | – |
| N#Cc1ccc(Nc2nc(O)cc(=O)[nH]2)cc1 | 265.7 | -0.078 | -4.58 | -9.837 | – | – |

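OPERA's authors assembled the values from existing databases and did not measure them anew. One number stands for a compound and property, with no spread given. Method, purity and exact conditions of the single measurements are not given. A value may pool stereoisomers or salt forms, and the file does not say which form was measured. Unmarked limits or estimates from the upstream databases cannot be ruled out.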